Protein sequences, listed by entry. Tags and fused reporters are not part of them.
UniProt P21452, whole entry: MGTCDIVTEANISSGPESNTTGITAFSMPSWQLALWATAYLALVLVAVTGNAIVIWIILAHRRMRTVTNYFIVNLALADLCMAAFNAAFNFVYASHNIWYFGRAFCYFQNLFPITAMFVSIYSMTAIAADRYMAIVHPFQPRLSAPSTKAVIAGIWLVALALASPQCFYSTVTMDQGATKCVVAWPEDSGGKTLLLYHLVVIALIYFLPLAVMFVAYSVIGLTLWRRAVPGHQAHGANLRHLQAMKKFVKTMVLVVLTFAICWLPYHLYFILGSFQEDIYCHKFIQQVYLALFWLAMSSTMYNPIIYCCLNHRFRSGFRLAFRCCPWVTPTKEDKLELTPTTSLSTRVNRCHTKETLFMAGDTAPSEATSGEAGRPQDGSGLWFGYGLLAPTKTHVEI

In paper PMC6201908, “Affinity, potency, efficacy, and selectivity of neurokinin A analogs at human recombinant NK2 and NK1 receptors” (PLoS ONE, 2018):

Columns and labels:
[1] = molecular target: T1, human recombinant NK2 receptors (Homo sapiens, UniProt P21452); experiment: cell-based; conditions: CHO-hNK2 cells; read-out: NK2 EC50 cAMP stimulation
Description: CHO-hNK2 and CHO-hNK1 cells were transiently transfected with a CRE-LUC reporter construct using Lipofectamine 2000. At 24 h post-transfection, cells were plated at a density of 20,000 cells/well in a 96-well culture plate. […] Luciferase expression was measured after 5 h of incubation at 37°C (in the presence of 5% CO2) by adding Firefly Luciferase reagent, followed by Renilla Luciferase reagent. Luminescence was measured by using an Envision Multilabel flash lamp reader after addition of the first and second reagents. Data were normalized by calculating the ratio of the Firefly luminescence from the CRE reporter to the Renilla luminescence from the control Renilla Luciferase vector.

[2] = molecular target: T1, human recombinant NK2 receptors
Description: Human recombinant NK2 and NK1 receptors were generated using stably transfected CHO cells (CHO-hNK2 and CHO-hNK1, respectively). Human NK2 or NK1 receptor expressing vectors from Genecopeia (Rockville, USA) were transfected in CHO cells using the standard FuGENE protocol and cells were selected using 450 μg/mL geneticin (G418). Clones expressing the receptors were selected by functional coupling to calcium using FLIPR and a single clone for each receptor subtype was selected for expansion and stable cell line generation. Cells were cultured in a humidified incubator with 5% CO2 in F12K medium containing 10% heat inactivated FBS and 450 μg/mL geneticin and passaged on reaching 80–90% confluence.
The agonist efficacy of the test compounds at recombinant human NK1 or NK2 receptors expressed in CHO cells was assessed by measuring the intracellular calcium response using the calcium-sensitive dye Fluo-4 AM (Eugene, OR, USA) and a Fluorometric Imaging Plate Reader (FLIPR, Molecular Devices, CA, USA). CHO-hNK1 and CHO-hNK2 cells were seeded into black walled clear-bottom 384-well plates at a density of 10,000 and 15,000 cells per well in 50 μL culture media, respectively, and grown overnight at 37°C in a humidified CO2-incubator. […] Loaded cell plates were transferred to the FLIPR and calcium responses were monitored as described below. […]

- EC50 [1]: 3.71 nM
- Agonist efficacy, intracellular calcium response (in words) [2]: full agonists
Compound: CSCC[C@H](NC(=O)[C@H](CC(C)C)NC(=O)CNC(=O)[C@H](Cc1ccccc1)NC(=O)[C@H](Cc1ccccc1)NC(=O)[C@H](CCC(N)=O)NC(=O)[C@H](CCC(N)=O)NC(=O)[C@@H]1CCCN1C(=O)[C@H](CCCCN)NC(=O)[C@@H]1CCCN1C(=O)[C@@H](N)CCCN=C(N)N)C(N)=O [Substance P, reference compound]
